Laboratory results taken from paper PMC4122355, “Inhibitor of the Tyrosine Phosphatase STEP Reverses Cognitive Deficits in a Mouse Model of Alzheimer's Disease” (PLoS Biology, 2014).

By UniProt entry, the sequences of proteins in these tests, tags left out. Residues count along the entry.
UniProt P54830, 173-541: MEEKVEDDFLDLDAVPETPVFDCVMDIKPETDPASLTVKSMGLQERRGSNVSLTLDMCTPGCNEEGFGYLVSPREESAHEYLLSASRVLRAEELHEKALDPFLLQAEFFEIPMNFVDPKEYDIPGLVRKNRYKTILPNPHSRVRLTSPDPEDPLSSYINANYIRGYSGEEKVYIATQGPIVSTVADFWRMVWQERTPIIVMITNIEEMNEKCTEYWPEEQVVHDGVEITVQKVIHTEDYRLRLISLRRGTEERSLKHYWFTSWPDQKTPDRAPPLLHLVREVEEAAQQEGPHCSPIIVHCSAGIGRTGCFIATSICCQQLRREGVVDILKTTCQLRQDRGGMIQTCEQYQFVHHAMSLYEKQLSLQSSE
UniProt P54830, whole entry: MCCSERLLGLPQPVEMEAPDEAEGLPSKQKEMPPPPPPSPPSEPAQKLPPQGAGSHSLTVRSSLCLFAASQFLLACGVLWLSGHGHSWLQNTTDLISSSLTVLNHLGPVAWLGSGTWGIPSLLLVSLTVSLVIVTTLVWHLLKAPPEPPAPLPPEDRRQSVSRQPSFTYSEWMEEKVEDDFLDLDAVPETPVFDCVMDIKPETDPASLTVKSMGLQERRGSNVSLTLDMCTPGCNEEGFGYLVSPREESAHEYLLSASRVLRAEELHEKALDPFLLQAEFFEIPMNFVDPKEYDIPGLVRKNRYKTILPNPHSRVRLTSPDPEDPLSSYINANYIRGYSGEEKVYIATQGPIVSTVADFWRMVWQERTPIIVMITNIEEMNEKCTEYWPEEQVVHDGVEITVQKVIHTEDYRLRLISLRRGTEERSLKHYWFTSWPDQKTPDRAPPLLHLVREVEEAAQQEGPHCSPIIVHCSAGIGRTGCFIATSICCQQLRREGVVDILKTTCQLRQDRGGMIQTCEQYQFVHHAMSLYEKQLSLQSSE

Assays:
[1] = molecular target: T1, STEP (Mus musculus, UniProt P54830); assay: HTS hit dose-response inhibition of STEP (pNPP); details: for IC50: commercial library samples, activity later ascribed to S8 contaminant
[2] = molecular target: T1, STEP; assay: pNPP assay of HPLC fractions of commercial Compound 3; type: biochemical; details: fraction 7, 100 nM STEP
Protocol: Figure 1 Compound 3 fractionation and initial characterization. (A) Commercially purchased Compound 3 was dissolved in methanol at 10 mg/mL, and 300 µL portions were injected onto a Zorbax (Agilent) 5 µm 300SB-C18 column (0.94×25 cm, 3 mL/min 75% methanol/25% pH 4.0 0.1 M ammonium acetate). Thirty-five fractions (3 mL each) were collected, evaporated, and reconstituted in 100 µL of DMSO. […] DMSO alone was used as a control. Shown in the insert is a representative chromatogram (UV absorbance detection, 350 nm). Peaks A, B, and C indicate early unretained material, Compound 3, and the unknown compound. (B) Structure of S8, the benzopentathiepin core, and 8-(trifluoromethyl)-1,2,3,4,5-benzopentathiepin-6-amine hydrochloride (known as TC-2153). (C and D) Dose–response curves for S8 and TC-2153. (C) The IC50 for S8 was determined to be 17.2±0.4 nM (mean ± s.e.m., n = 4).

[3] = molecular target: T1, STEP; assay: Preliminary studies of STEP inhibition in neuronal cultures and cortical tissue after i.p. injection; type: in vivo; details: commercial sample, i.p. injections in WT mice

IC50 [1] [µM] | Compound | further results
4.1 | Cc1csc(CCc2ccccc2)n1 | –
1.4 | c1ccc(CCNc2nnns2)cc1 | –
8.7 | COc1ccc([S+]([O-])Cc2c(C(=O)c3ccccc3)oc3ccccc23)cc1 (centres unmarked) | –
2.9 | CCCCn1cnc2sc3c(c2c1=N)CCCC3 | –
2.2 | COc1ccc(-c2cc(-c3ccccc3)nc3sc(C(=O)NC4CC4)c(N)c23)cc1 | Inhibition of STEP activity in neuronal cultures and cortical tissue [3]: potent inhibition of STEP activity; Inhibitory activity towards STEP after resynthesis ([1]; resynthesized compounds, pNPP assay): greatly diminished activity
4.9 | CCOC(=O)c1cc(-c2ccccc2)sc1NC(=O)c1ccc(Br)cc1 | –
0.98 | CC(C)N1CCc2c(sc(N)c2C#N)C1 | –

Compound | IC50 [1] [µM] | further results
CCS(=O)(=O)c1ccc(-c2csc(-c3ccccn3)n2)c(Cl)c1Cl | 9.7 | Inhibitory activity of HPLC-purified major peak against STEP [2]: no inhibitory activity against STEP
